Assay results: patent US10640830B2, “Drug selection for non-small cell lung cancer therapy” (NESTEC S.A., priority 2013, dated 2020)

System: NSCLC
Assay: EGFR inhibitor treatment of NSCLC patient (Patient #10)
Assay type: in vivo, human

Structure (SMILES): COc1cc2ncnc(Nc3ccc(F)c(Cl)c3)c2cc1OCCCN1CCOCC1 [gefitinib]
- response to treatment course: partial response
- time to relapse (PFS): 5.1 months
